From ChEMBL document CHEMBL4028814, “Thiazolidine derivatives as potent and selective inhibitors of the PIM kinase family” (Bioorg Med Chem, 2017)

By UniProt entry, the sequences of proteins in these tests, tags left out.
UniProt P11309, whole entry, looked up: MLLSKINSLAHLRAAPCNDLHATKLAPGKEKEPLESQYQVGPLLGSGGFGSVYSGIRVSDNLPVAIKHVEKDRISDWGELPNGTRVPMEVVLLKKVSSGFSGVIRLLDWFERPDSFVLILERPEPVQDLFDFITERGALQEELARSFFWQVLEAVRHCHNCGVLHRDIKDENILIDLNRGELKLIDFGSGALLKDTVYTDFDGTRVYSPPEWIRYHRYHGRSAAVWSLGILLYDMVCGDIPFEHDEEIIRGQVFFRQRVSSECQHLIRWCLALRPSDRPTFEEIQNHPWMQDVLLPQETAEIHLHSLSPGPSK

What follows are molecules tested against Serine/threonine-protein kinase pim-1 (Homo sapiens, UniProt P11309) (assay: Inhibition of recombinant PIM1 (unknown origin) assessed as change in melting temperature at 10 uM by SYPRO orange dye-based differential scanning fluorimetric method).

SMILES | ΔTm
O=C1NC(=S)n2c1cc1cc(Cl)ccc1c2=O | 5.1 °C
O=C1NC(=S)n2c1cc1ccc(Nc3ccccc3)cc1c2=O | 1.9 °C
O=C1NC(=S)n2c1cc1ccc(-c3ccncc3)cc1c2=O | 2 °C
O=C1NC(=S)n2c1cc1cccc(Cl)c1c2=O | 1.9 °C
